Literature values in US5888494A, “Film-forming compositions of antihyperalgesic opiates and method of treating hyperalgesic and pruritic conditions therewith” (priority 1997, dated 1999).

Conditions: intravenous administration; cited from earlier work

## CN1CC[C@]23c4c5ccc(O)c4O[C@H]2C(=O)CC[C@H]3[C@H]1C5 [hydromorphone]
  itch and itch-related reactions: associated with prutitus, urticaria, other skin rashes, and wheal and flare over the vein being injected
